## scFv variants of Ab-14 (light chain) against a SARS-CoV-2 spike peptide

Binding partner: SARS-CoV-2 spike HR2 peptide, sequence PDVDLGDISGINAS.

Parent scFv Ab-14: VH joined to VL by a 15-residue (Gly4Ser)3 linker. Changes lie in the light chain CDRs alone.
VH: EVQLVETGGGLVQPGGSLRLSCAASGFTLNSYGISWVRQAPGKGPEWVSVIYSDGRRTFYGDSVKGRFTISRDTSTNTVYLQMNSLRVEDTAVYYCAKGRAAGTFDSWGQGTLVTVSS
VL: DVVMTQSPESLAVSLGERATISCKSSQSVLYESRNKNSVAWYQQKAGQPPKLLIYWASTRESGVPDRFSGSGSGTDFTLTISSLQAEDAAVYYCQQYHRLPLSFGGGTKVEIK

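The variants were designed computationally from a first round of random CDR variants and then made and measured. Group labels follow the data file (Ctrl: baseline library sampled from a position-specific scoring matrix, with some repeated check sequences; En: ensemble of fine-tuned language models; GP: Gaussian process model; HC: hill climbing; Gen: genetic algorithm; Gibbs: Gibbs sampling; a sequence that several methods proposed may carry one label only). The scFvs were displayed on barcoded MATa yeast, the peptide on MATalpha yeast. Mating (16 h, 30 °C) was followed by selection of diploids and sequencing of their barcodes. The ratio of observed to expected reads was calibrated, replicate by replicate, on BCL2-family standards whose Kd was known from biolayer interferometry. Mating was done six times.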

Each variant is given by its three light chain CDRs, as the data file delimits them; those of the parent are KSSQSVLYESRNKNSVA, WASTRES, QQYHRLPLS. Kd is apparent (estimated from mating counts) and averaged on the log scale over replicates with a signal. Smaller is tighter. An entry "no signal" has no value in the source: the pair was not observed among the diploids in any replicate. This suggests poor binding but is not conclusive. Where one sequence has several entries in the source, the replicates are pooled. Values of this round are not directly comparable with the first-round values of the same sequences. Three control strains display no target. For all light chain designs, 4% of the pairings with them gave a signal, with a median of 430 nM and one signal in twenty below 38 nM, so weak values seen in few replicates may be background. The control count says in how many pairings with the empty strains this scFv gave a signal. The authors' rule: three or more of the six replicates give a measured affinity, fewer mean a poor binder.

CDR-L1	CDR-L2	CDR-L3	group	apparent Kd	replicates with signal	signal with controls
KISMLQRFQSNAKNNIA	EMSRREE	QQYHRLPLS	En_HC	1.4 nM	6 of 6	1 of 18
TISQSAQQEMHNKNSVA	DLNVRGS	QQYDRLPLS	En_HC	3.6 nM	6 of 6	1 of 18
MLPESTPQQISNKNPVA	GAQHTAV	QQYDRLPLT	En_Gibbs	1.3 nM	6 of 6	0 of 18
KSSQSVLYESRNHNSVA	DASTRES	QQYHRLPLS	Ctrl	940 pM	6 of 6	0 of 18
KFSQSVLYESRNYNSVA	NASTRES	QQYHRLPLS	GP_HC	750 pM	6 of 6	1 of 18
KSSQSVLYESRNKNSVA	WASTRES	QQYHRLLLS	Ctrl	no signal	0 of 6	0 of 18
KIGMTLNQMMHKKNNVA	DLVTREN	QQYFRLPLS	En_Gen	2.3 nM	6 of 6	0 of 18
QLAVDRLQEYEMGDAIA	GKTLRED	QQYYRLPLS	En_Gibbs	2.1 nM	6 of 6	0 of 18
KFSQSVLMESRNCNSVA	DASTRES	QQYHRLPLS	GP_HC	5.6 nM	6 of 6	3 of 18
KLQQSQLYESRNKNSVA	SASQRES	QQYHRLPLS	GP_Gen	900 pM	6 of 6	0 of 18
TIDLYTSYGNGENKAIA	DVSIKDY	QQYARLPLL	En_Gibbs	4.3 nM	6 of 6	1 of 18
SIQNLGMVNSVWKNSIA	DVTIVED	QQYYRLPLL	En_Gibbs	5.6 nM	6 of 6	1 of 18
ILSMSELYGDRMKNSVA	NASQRES	QQYHRLPLS	GP_Gibbs	1.3 nM	6 of 6	1 of 18
KLSQSELYESRNKNSVA	EASTRES	QAYHRLPLS	GP_Gen	7.3 nM	6 of 6	3 of 18
KIGMTLNQLMQKKNNVA	DLVTREQ	QQYHRLPLS	En_Gen	820 pM	6 of 6	0 of 18
HLMQSMLYESRNKNSVA	HASLRED	QQYHRLPLS	GP_HC	1.6 nM	6 of 6	0 of 18
KLRNEAIGWYRNGASIA	DEHYRVD	QQYHHLPLL	En_Gibbs	4.5 nM	6 of 6	0 of 18
IIDSIMFHGNKRANSIA	QAEERVN	QQYHHLPLT	En_Gen	16 nM	6 of 6	0 of 18
KSSQSVLYESRNKNSVA	WAGLREV	QQYMRLPLS	Ctrl	57 nM	1 of 6	0 of 18
KYSPSYLYESRNKNSVA	QASTRES	QQYHRLPLS	GP_HC	2.1 nM	6 of 6	2 of 18
KSSQSVLYESDNKNSVA	DASTRES	QQYHRLPLS	Ctrl	1.8 nM	6 of 6	1 of 18
KSSQSVVYESRNKNSVA	ASSTRES	QQYHMLPLA	Ctrl	10 nM	6 of 6	2 of 18
KSSFSVLYESGNKNSVA	HASTRED	QQYHRLPLS	GP_HC	4.1 nM	6 of 6	2 of 18
KLSQSHLYESRNKWSVA	NASTRES	QQYHRLPLS	GP_Gen	94 nM	5 of 6	0 of 18
KSSISESYESRNKNSVA	EASTRES	QQYHRLPLM	GP_HC	1.1 nM	6 of 6	1 of 18
KFSQSVLYESRTSNGVA	NASTRES	QQYHRLPLS	GP_HC	1.3 nM	6 of 6	0 of 18
KVQQSVLYESRNKNSVA	NASTRMS	QQYHRLPLS	GP_Gen	1.2 nM	6 of 6	1 of 18
SLSPFMDNYNQKYDSVA	DTANIDI	QQYDRLPLS	En_Gibbs	no signal	0 of 6	0 of 18
KSSQSVAYESRNKNSVA	GASTRES	QQYHRLPLS	Ctrl	2.4 nM	6 of 6	0 of 18
KLSQVTGHLSVEKNNVA	EMETREN	QQYDRLPLA	En_Gen	8.5 nM	6 of 6	2 of 18
KMSQSVLYESENKVSVA	NASTRYS	QQYHRLPLS	Ctrl	2.7 nM	6 of 6	2 of 18
KISMHAGHMSMSRNNVA	EMVTREN	QQYDRLPLS	En_Gen	2.2 nM	6 of 6	1 of 18
KLSQSWLYESRNKNSVA	EASTRES	QQYHRLPLS	GP_Gen	570 pM	6 of 6	0 of 18
TISQVHGMQSHNKNSVA	DMNTRGS	QQYDRLPLS	En_HC	1.8 nM	6 of 6	0 of 18
FLPMKELQMSENTNNVA	DSEQKMK	QQYSRLPLM	En_Gibbs	1.1 nM	6 of 6	1 of 18
KSSQNVLYESRNKNSVA	DASTRES	QQYHRLPLS	Ctrl	3.0 nM	6 of 6	0 of 18
KLSQLFYKESRNKNNVA	EMTTRGK	QQYDRLPLS	En_HC	1.1 nM	6 of 6	0 of 18
KLSQSVLYEPRNSQSVA	DASTRYS	QQYHRLPLS	GP_Gibbs	410 pM	6 of 6	0 of 18
KISQSALMESRNWNSVA	NASKRES	QQYHRLPLS	GP_Gibbs	2.2 nM	6 of 6	2 of 18
KMSQSWLYESLNKNSVA	AASTRES	QQYSRLPLS	Ctrl	590 pM	6 of 6	0 of 18
FLSQSNLYESRNKNSVA	NASTRES	QQYHRLPLS	GP_Gen	1.7 nM	6 of 6	0 of 18
KLSGSMLYESRNKNNVA	DAHQRES	QMYHRLPLS	GP_Gibbs	520 nM	3 of 6	0 of 18
NSSQSWLYESRNKNSVA	QGNHRES	QQYHRLPLS	GP_HC	3.1 nM	6 of 6	0 of 18
TLYGLSVSMSKNKNSVA	EMTTREK	QQYDRLPLE	En_Gen	34 nM	6 of 6	3 of 18
KSSQSVLYESDNKNSVA	ADSTRES	QQYHRLPLS	Ctrl	38 nM	1 of 6	0 of 18
QLFHKWGQLDNIAYNVA	DATTVID	QQYMRLPIT	En_Gibbs	30 nM	5 of 6	0 of 18
KLYQMTGIESHAQNSLA	DANRRED	QQYHRLPLS	En_HC	1.9 nM	6 of 6	2 of 18
KSSQSVLYESRNKNSVA	GASTRES	QAYHRLPLS	Ctrl+GP_HC	2.3 nM	12 of 12	1 of 36
MVTQMAMTGMMSKRSVA	NATTREE	QQYHHLPLI	En_Gen	5.6 nM	6 of 6	2 of 18
KLEQSVMYESRNKNSVA	NASTRES	QQYHRLPLS	GP_Gen	360 pM	6 of 6	0 of 18
KISMMSTIESIMHNSVA	QTSTREN	QQYDRLPLS	En_HC	39 nM	6 of 6	0 of 18
KLSQSALYESRNKNSVA	NASTRMS	QQYHRLPLS	GP_Gen	420 pM	6 of 6	0 of 18
IISQVDAYLSRNTNSIA	DQSTRGS	QQYDRLPLS	En_HC	25 nM	6 of 6	0 of 18
KISQMIRVGTTASNSIA	EEVTRAK	QQYHRLPLA	En_Gen	49 nM	6 of 6	0 of 18
KITATMRFEQKASNNIA	EVEQRTK	QQYYRLPLS	En_Gen	6.5 nM	6 of 6	0 of 18
KLYEMLAVTMSHIRNVA	DNSTRES	QQYNRLPLS	En_Gen	420 nM	2 of 6	0 of 18
KLSQSWLYESRMKNSVA	NASQRLS	QQYHRLPLS	GP_Gen	2.4 nM	6 of 6	0 of 18
KLPMMYQHTSRNKNNIA	ERSTREE	QQYHHLPLS	En_HC	3.9 nM	6 of 6	0 of 18
KSSWSVLYESGNKNSVA	DASTRED	QQYHRLPLS	GP_HC	2.3 nM	6 of 6	0 of 18
KLGQSTAMTSRNKNNVA	DLNERER	QQYHRLPLS	En_HC	1.1 nM	6 of 6	0 of 18
KLSMSDLYESRNGNSVA	MASTREK	QQYHRLPLS	GP_Gibbs	1.4 nM	6 of 6	1 of 18
MISQLANMGTFAINSVA	QASLRNE	QQYDRLPLM	En_Gen	15 nM	1 of 6	0 of 18
KAQQGVLYESRNKNSVA	GASTRES	QQYHRLPLS	GP_HC	1.1 nM	6 of 6	1 of 18
NLGQKMALITEQRNQIA	DSTVRED	QQYSRLPLI	En_Gibbs	6.4 nM	6 of 6	0 of 18
KLNKHAWDFNATWNSVA	DHSMRVT	QDYIRLPLT	En_Gibbs	12 nM	6 of 6	1 of 18
AIDSHGLGTQEYYDSIA	EEHVKVR	QQYDRLPLS	En_Gibbs	240 nM	1 of 6	0 of 18
KLSQSFLYESRNKMSVA	NASTREE	QQYHRLPLS	GP_Gibbs	350 pM	6 of 6	0 of 18
KMSQSVDVLDRNKNSVA	NASTREM	QQYHRLPLS	GP_Gibbs	660 pM	6 of 6	1 of 18
KSSQSVVYEPRNKNSVA	NASTRES	QQWHRLPLS	Ctrl	no signal	0 of 6	1 of 18
KSSQSVLFESRNKNSVA	WASTRES	QQYHRLPLF	Ctrl	no signal	0 of 6	1 of 18

Excerpt, the final 10 entries:

CDR-L1	CDR-L2	CDR-L3	group	apparent Kd	replicates with signal	signal with controls
KLSMSDLYESRNGNSVA	MASTREK	QQYHRLPLS	GP_Gibbs	1.4 nM	6 of 6	1 of 18
MISQLANMGTFAINSVA	QASLRNE	QQYDRLPLM	En_Gen	15 nM	1 of 6	0 of 18
KAQQGVLYESRNKNSVA	GASTRES	QQYHRLPLS	GP_HC	1.1 nM	6 of 6	1 of 18
NLGQKMALITEQRNQIA	DSTVRED	QQYSRLPLI	En_Gibbs	6.4 nM	6 of 6	0 of 18
KLNKHAWDFNATWNSVA	DHSMRVT	QDYIRLPLT	En_Gibbs	12 nM	6 of 6	1 of 18
AIDSHGLGTQEYYDSIA	EEHVKVR	QQYDRLPLS	En_Gibbs	240 nM	1 of 6	0 of 18
KLSQSFLYESRNKMSVA	NASTREE	QQYHRLPLS	GP_Gibbs	350 pM	6 of 6	0 of 18
KMSQSVDVLDRNKNSVA	NASTREM	QQYHRLPLS	GP_Gibbs	660 pM	6 of 6	1 of 18
KSSQSVVYEPRNKNSVA	NASTRES	QQWHRLPLS	Ctrl	no signal	0 of 6	1 of 18
KSSQSVLFESRNKNSVA	WASTRES	QQYHRLPLF	Ctrl	no signal	0 of 6	1 of 18

The measurements come from Li et al. 2023 (doi:10.1038/s41467-023-39022-2) through the FLAb antibody collection.